Experimental data reported in patent publication US4950647A, “T cell immunopotentiator” (Nucleic Acid Research Institute, priority 1988, dated 1990).

What was measured:
cytotoxic T cells = conditions: some AIDS patients and patients with AIDS related complex; cited from earlier work
[1] = system: human mixed lymphocyte culture; assay: Mixed lymphocyte response / culture (alloantigens); type: cell-based; conditions: A + B
Procedure: (§1) Peripheral blood mononuclear cells were isolated from heparinized peripheral blood of normal healthy donors as described in Sharma, B. and S. Gupta, "Antigen-specific primary cytotoxic T lymphocyte response in acquired immune deficiency syndrome (AIDS) and AIDS related complex", Clin. Exp. Immunol., 62:296, 1985. Briefly, blood was diluted 1:1 with Hanks balanced salt solution (HBSS). Peripheral blood mononuclear cells were separated on a Ficoll-Hypaque gradient. The peripheral blood mononuclear cells recovered from the interface were washed three times with HBSS and resuspended in RPMI-1640 containing 100 U/ml penicillin, 100 μg/ml streptomycin 2mM L-glutamine (GIBCO, Grand Island, N.Y.), and 10% heat-inactivated pooled A serum (Irvine Scientific, Irvine, Calif.), hereafter referred as complete medium (CM).
Peripheral blood mononuclear cells (1×10^5 /0.2 ml/well) from donor-A were cultured together with different numbers of peripheral blood mononuclear cells ([…]) of peripheral blood mononuclear cells from the other donor for 96 hr as previously described above for the lymphocyte response to plant mitogens. Cultures were pulsed with [^3 H]-thymidinefor additional 16 hrs.
The maximal increase of 91% is seen in those experiments where allogeneic peripheral blood mononuclear cells.

[2] = system: human lymphocytes (peripheral blood mononuclear cells); assay: Phytohemagglutinin (PHA) induced lymphocyte proliferation; type: cell-based
Procedure: as §1
The ability of the compound 6-amino-(2-deoxy-α-D-erythropentofuranosyl)-imidazo[4,5,-C]pyridin-4-one to modulate lymphocyte response to plant mitogens was determined by the modified procedure of Sharma, B., O. Kohashi, M. R. Mickey, and P. T. Terasaki, "Effect of water soluble adjuvants on in vitro lymphocyte immunization", Cancer Res. 35:666, 1975. Peripheral blood mononuclear cells were cultured for 72-96 hr with phytohemagglutinin (Difco, Detroit, Mich.), Concanavalin A (Calbiochem, Calif.) or Pokeweed mitogen (GIBCO, Grand Island, N.Y.) in the presence and absence of 6-amino-(2-deoxy-α-D-erythro-pentofuranosyl)-imidazo[4,5,-C]pyridin- 4-one. The culture were set up in quadruplicate and pulsed with [^3 H]-thymidine for 16 hr and the [^3 H] thymidine incorporation was determined.
Lymphocytes from different donors where incubated with various concentration of phytohemagglutinin in absence and presence of 6-amino-(2-deoxy-α-D-erythro-pentofuranoxyl)imidazo-[4,5,-C]pyridin- 4-one.
[…] Lymphocyte proliferation was determined by ^3 H-thymidine incorporation.

[3] = A + PHA (0.125 μg), rIL-2 5 units
[4] = A + PHA (0.125 μg), rIL-2 10 units

Row | Substance | restoration of depressed cytotoxic T cell function (cytotoxic T cells) | 3H-thymidine incorporation ([1]; rIL-2 2 units) | % Potentiation ([1]; rIL-2 2 units) [%] | 3H-thymidine incorporation ([1]; rIL-2 5 units) | % Potentiation ([1]; rIL-2 5 units) [%] | 3H-thymidine incorporation ([1]; rIL-2 (1O) units) | % Potentiation ([1]; rIL-2 (1O) units) [%] | 3H-thymidine incorporation [2, 3] | % Potentiation [2, 3] [%] | 3H-thymidine incorporation [2, 4] | % Potentiation [2, 4] [%] | 3H-thymidine incorporation ([2]; A + PHA (1 μg), rIL-2 2 units) | % Potentiation ([2]; A + PHA (1 μg), rIL-2 2 units) [%] | 3H-thymidine incorporation ([2]; A + PHA (1 μg), rIL-2 10 units) | % Potentiation ([2]; A + PHA (1 μg), rIL-2 10 units) [%]
1 | interleukin-2: interleukin-2 (literature) | could restore depressed cytotoxic T cell function | – | – | – | – | – | – | – | – | – | – | – | – | – | –
2 | rIL-2: Recombinant Interleukin-2 (rIL-2) | – | 19,413 ± 2623 CPM | 46 | 22,451 ± 2979 CPM | 68 | 26,690 ± 1962 CPM | 100 | 95,849 ± 9225 CPM | 645 | 87,707 ± 3989 CPM | 582 | 109,587 ± 9210 CPM | 23 | 124,464 ± 9761 CPM | 45
